{"source": "paper PMC5876388", "about": "“The Notch inhibitor cowanin accelerates nicastrin degradation” (Scientific Reports, 2018)", "tested_on": "HPB-ALL cells", "test": "Cytotoxicity test, AlamarBlue", "conditions": "10 μM, 72 h", "method": "HPB-ALL cells (1 × 10^4 cells per well) were incubated in 96-well black plates at 37 °C for 72 h. Media also contained different concentrations of compound. After incubation, AlamarBlue was added 10 μL per well. After incubation for 4 h, using a fluorescence plate reader, fluorescence was measured and cell viability was determined. Data are presented as the mean with SD from three independent experiments. […] The effect on protein expression was analyzed by Western blotting. β-Actin was used as internal control. (D,E) Relative protein levels of NICD and HES1 analyzed by densitometry. Data are presented as the mean with SD from three independent experiments. *P < 0.05 is considered statistically significant. P values were analyzed by Student’s t test.\nHPB-ALL cells (1 × 10^4 cells per well) were incubated in 96-well black plates in 100 μL of RPMI-1640 medium with 10% FBS, Streptomycin (100 μg/mL) and Penicillin (100 unit/mL). Media also contained different concentrations of compound. Cells were incubated at 37 °C for 72 h. After incubation, AlamarBlue (00–025, DAL1025; Thermo Fisher Scientific Inc., Waltham, USA) was added 10 μL per well. After incubation for 4 h, using a fluorescence plate reader (Thermo Fisher Scientific Inc., Waltham, USA), fluorescence was measured and cell viability was determined."}
{"smiles": "COc1c(O)cc2oc3cc(O)c(CC=C(C)C)c(O)c3c(=O)c2c1C/C=C(\\C)CCC=C(C)C", "note": "[Compound 2, cowanin]", "values": [{"measurement": "viability of HPB-ALL cells", "value": "reduced"}]}
